From ChEMBL document CHEMBL1130514, “Design and synthesis of conformationally constrained arginal thrombin inhibitors” (Bioorg Med Chem Lett, 1997)

Molecular target: Prothrombin (Homo sapiens, UniProt P00734)
Assay: In vitro ability to inhibit the activity of human alpha Thrombin

- IC50: 39 nM
Structure (SMILES): CC1CNc2c(cccc2S(=O)(=O)N[C@@H](CCCNC(=N)N)C(=O)N2CCC(C)C[C@@H]2C(=O)O)C1 (single isomer, unassigned) [ARGATROBAN]
